Earlier results as cited in US9422302B2 (priority 2013, dated 2016).

Chains of the proteins cited; added tags and fusions are not shown. Lines headed by an entry give the natural chain unless they say otherwise; changes in a name come on top.
UniProt P33533, whole entry, looked up: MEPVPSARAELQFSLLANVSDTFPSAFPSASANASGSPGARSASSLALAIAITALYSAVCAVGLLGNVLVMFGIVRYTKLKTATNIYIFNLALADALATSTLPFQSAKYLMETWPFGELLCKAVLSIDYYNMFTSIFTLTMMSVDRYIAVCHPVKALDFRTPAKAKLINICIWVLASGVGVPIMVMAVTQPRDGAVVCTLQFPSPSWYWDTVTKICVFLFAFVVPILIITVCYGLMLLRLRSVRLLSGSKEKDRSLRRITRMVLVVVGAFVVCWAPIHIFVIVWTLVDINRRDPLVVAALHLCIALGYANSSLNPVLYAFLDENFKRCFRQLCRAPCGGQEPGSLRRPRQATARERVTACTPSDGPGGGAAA

Molecular target: δ receptor (Rattus norvegicus, UniProt P33533)
Details: relative to BW373U86 = 1.00, buprenorphine and naltrexone designated 0 as classified antagonists; cited from earlier work

Compound | Relative % Emax Experimental
CO[C@]12CC[C@@]3(C[C@@H]1C(C)(C)O)[C@H]1Cc4ccc(O)c5c4[C@@]3(CCN1CC1CC1)[C@H]2O5 | 0.08
(±)-4-((α-R*)-α-((2S*,5R*)-4-Allyl-2,5-dimethyl-1-piperazinyl)-3-hydroxybenzyl)-N,N-diethyl-benzamide | 1.00
